Results published in the NIST ThermoML archive (doi:10.1016/j.jct.2005.05.008).

Test: an = ratio of the nth substance listed, in mol/kg
Settings: 101 kPa, Liquid, Vibrating tube method

CCC[N+](CCC)(CCC)CCC.[O-][Cl+3]([O-])([O-])[O-] [tetrapropylammonium perchlorate] + CN(C)C=O
mass density [kg/m3]
Settings | a1 = 0.01826 | a1 = 0.02772 | a1 = 0.03739 | a1 = 0.05602 | a1 = 0.07557 | a1 = 0.105 | a1 = 0.1323 | a1 = 0.1595 | a1 = 0.1889
283.15 K | 958.921 | 959.359 | 959.804 | 960.652 | 961.532 | 962.853 | 964.068 | 965.279 | 966.57
293.15 K | 949.431 | 949.88 | 950.335 | 951.208 | 952.108 | 953.456 | 954.704 | 955.944 | 957.263
298.15 K | 944.677 | 945.132 | 945.594 | 946.474 | 947.385 | 948.752 | 950.012 | 951.267 | 952.6
303.15 K | 939.914 | 940.374 | 940.842 | 941.736 | 942.66 | 944.04 | 945.316 | 946.585 | 947.938
313.15 K | 930.356 | 930.828 | 931.308 | 932.224 | 933.171 | 934.587 | 935.896 | 937.195 | 938.585
323.15 K | 920.751 | 921.238 | 921.731 | 922.67 | 923.642 | 925.097 | 926.436 | 927.766 | 929.191
333.15 K | 911.09 | 911.587 | 912.092 | 913.055 | 914.058 | 915.555 | 916.928 | 918.295 | 919.755
